In US12473298B2, “Amide compounds, preparation method therefor, and use thereof in the medical field” (Shanghai Synergy Pharmaceutical Sciences Co., Ltd., priority 2019, dated 2025) one finds IC50 data, which are given here for one compound.

One may read the IC50 as the concentration that gives 50% inhibition. Read a low IC50 as greater potency in that assay.

The test system of this assay is human diffuse large B-cell lymphoma cells (WSU-DLCL2 cell).

As to `CC[C@H](C)n1cc(C)c2c(C(=O)NCc3c(C)cc(C)[nH]c3=O)cc(-c3ccc(N4CCNCC4)nc3)cc21` [GSK126, reference compound], the IC50 worked out at 0.0835 µM.
